Measured values as given in patent US8846601B2, “Melanocortin receptor-specific peptides” (Palatin Technologies, Inc., priority 2009, dated 2014).

By UniProt entry, the sequences of proteins in these tests, tags left out.
UniProt P32245, whole entry: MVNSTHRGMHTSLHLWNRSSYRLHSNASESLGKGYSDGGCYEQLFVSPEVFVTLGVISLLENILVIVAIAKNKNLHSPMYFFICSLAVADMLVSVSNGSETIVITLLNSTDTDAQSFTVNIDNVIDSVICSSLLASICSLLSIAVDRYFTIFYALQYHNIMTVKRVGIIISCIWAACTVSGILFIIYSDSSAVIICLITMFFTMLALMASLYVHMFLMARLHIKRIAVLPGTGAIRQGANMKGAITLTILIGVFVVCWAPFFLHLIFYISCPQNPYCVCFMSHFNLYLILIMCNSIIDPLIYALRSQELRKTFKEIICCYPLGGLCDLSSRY

Tests used:
[1] = target: T1, hMC4-R (Homo sapiens (Human), UniProt P32245); assay: Competitive inhibition binding assay using [I125]-NDP-α-MSH, hMC4-R membranes; conditions: averaged; [I125]-NDP-α-MSH (values not marked *); read-out: MC4-R Ki
Description: A competitive inhibition binding assay is performed using membrane homogenates prepared from HEK-293 cells that express recombinant hMC4-R, hMC3-R, or hMC5-R, and from B-16 mouse melanoma cells (containing endogenous MC1-R). In some instances, HEK-293 cells that express recombinant hMC1-R were employed. In the examples that follow, all MC3-R, MC4-R and MC5-R values are for human recombinant receptors. […] Membrane homogenates were incubated with 0.2 nM (for hMC4-R) 0.4 nM (for MC3-R and MC5-R) or 0.1 nM (for mouse B16 MC1-R or hMC1-R) [I^125]-NDP-α-MSH (Perkin Elmer) and increasing concentrations of test peptides of the present invention in buffer containing 25 mM HEPES buffer (pH 7.5) with 100 mM NaCl, 2 mM CaCl2, 2 mM MgCl2, 0.3 mM 1,10-phenanthroline, and 0.2% bovine serum albumin. After incubation for 60 minutes at 37° C., the assay mixture was filtered and the membranes washed three times with ice-cold buffer. Filters were dried and counted in a gamma counter for bound radioactivity. […] Maximal specific binding (100%) was defined as the difference in radioactivity (cpm) bound to cell membranes in the absence and presence of 1 μM NDP-α-MSH. […] Each assay was conducted in triplicate and the actual mean values are described, with results less than 0% reported as 0%. Ki values for test peptides of the present invention were determined using Graph-Pad Prism® curve-fitting software.

[2] = target: T1, hMC4-R; assay: Competitive binding assay using Eu-NDP-α-MSH (TRF), hMC4-R membranes; conditions: averaged; Eu-NDP-α-MSH (values marked *); read-out: MC4-R Ki
Description: Alternatively, a competitive inhibition binding assay was performed employing Eu-NDP-α-MSH (PerkinElmer Life Sciences catalog No. AD0225) with determination by time-resolved fluorometry (TRF) of the lanthanide chelate. […] After incubation for 90 minutes at 37° C., the reaction was stopped by filtration over AcroWell 96-well filter plates (Pall Life Sciences). The filter plates were washed 4 times with 200 μL of ice-cold phosphate-buffered saline. DELFIA Enhancement solution (PerkinElmer Life Sciences) was added to each well. […] Each assay was conducted in duplicate and mean values were utilized. Ki values were determined by curve-fitting with Graph-Pad Prism® software using a one-site fixed-slope competition binding model.

Row | Ki [1] [nM] | Ki [2] [nM] | SMILES
1 | 4290 |  | CC(=O)N[C@@H](CCCNC(=N)N)C(=O)N[C@H]1CC(=O)NCCCC[C@@H](C(N)=O)NC(=O)[C@H](Cc2c[nH]c3ccccc23)NC(=O)[C@H](CCCCN)NC(=O)[C@@H](Cc2ccccc2)NC(=O)[C@H](CO)NC1=O [compound 4, Ac-Arg-cyclo(Asp-Ser- D-Phe-Lys-Trp-Lys)- NH2]
2 | 0.7 |  | CC(=O)N[C@@H](CCCNC(=N)N)C(=O)N[C@H]1CCC(=O)NCCC[C@@H](C(N)=O)NC(=O)[C@H](Cc2c[nH]c3ccccc23)NC(=O)[C@H](CCCNC(=N)N)NC(=O)[C@@H](Cc2ccccc2)NC(=O)[C@H](CCCNC(=N)N)NC1=O [compound 102, Ac-Arg-cyclo(Glu-Arg- D-Phe-Arg-Trp-Orn)- NH2]
3 |  | 2 | CC(=O)N[C@@H](CCCNC(=N)N)C(=O)N[C@H]1CCNC(=O)CCC[C@@H](C(N)=O)NC(=O)[C@H](Cc2c[nH]c3ccccc23)NC(=O)[C@H](CCCNC(=N)N)NC(=O)[C@@H](Cc2ccccc2)NC(=O)[C@H](Cc2c[nH]cn2)NC1=O [compound 128, Ac-Arg-cyclo(Dab-His- D-Phe-Arg-Trp-hGlu)- NH2]
